Assay results published in patent publication US7579371B2, “Methods of using [3.2.0] heterocyclic compounds and analogs thereof” (Nereus Pharmaceuticals, Inc., priority 2004, dated 2009).

Amino acid sequences for entries named in this document (tags omitted). Residues count along the entry.
UniProt G1T4Q9, 1-263: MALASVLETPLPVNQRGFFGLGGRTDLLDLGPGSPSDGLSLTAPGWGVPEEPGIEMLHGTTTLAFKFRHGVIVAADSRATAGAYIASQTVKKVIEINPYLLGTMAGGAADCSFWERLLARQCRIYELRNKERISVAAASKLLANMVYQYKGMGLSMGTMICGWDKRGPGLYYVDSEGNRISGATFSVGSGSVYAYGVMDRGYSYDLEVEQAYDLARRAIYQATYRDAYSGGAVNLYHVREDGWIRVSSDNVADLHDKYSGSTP

What was measured:
[1] = target: rabbit muscle 20S proteasome, chymotrypsin-like activity (Oryctolagus cuniculus, UniProt G1T4Q9); assay: Chymotrypsin-like activity of purified rabbit muscle 20S proteasome (suc-LLVY-AMC); assay type: biochemical
[2] = target: T1, rabbit muscle 20S proteasome, trypsin-like activity (Oryctolagus cuniculus, UniProt G1SWK8); assay: Trypsin-like activity of purified rabbit 20S proteasome (Boc-LRR-AMC)
T1 sequence (G1SWK8 1-271): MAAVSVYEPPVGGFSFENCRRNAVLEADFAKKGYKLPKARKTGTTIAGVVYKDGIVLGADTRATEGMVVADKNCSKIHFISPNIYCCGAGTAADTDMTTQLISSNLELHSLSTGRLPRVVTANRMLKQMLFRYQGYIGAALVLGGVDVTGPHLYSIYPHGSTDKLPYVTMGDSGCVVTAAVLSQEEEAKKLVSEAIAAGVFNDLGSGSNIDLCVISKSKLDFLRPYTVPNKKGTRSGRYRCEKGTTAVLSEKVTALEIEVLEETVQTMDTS

`C[C@@]12OC(=O)[C@]1([C@@H](O)[C@@H]1C=CCCC1)NC(=O)[C@@H]2CCCl` [Formula II-16, Salinosporamide A] was tested, and the EC50 [1] was 0.002 to 0.011 µM and the EC50 [2] was ~0.01 µM.
